Marks after values point to notes of the source that are not given here.
Legend:
[1] = tested on: patients with SBP/DBP within 140-179/90-109 mmHg ranges; assay: Phase IIb trial
Experimental: The Phase IIb trial started with a 4-week placebo run-in period and 261 qualified patients with SBP/DBP within 140-179/90-109 mmHg ranges were randomized to either the compound of formula I 200 mg, 400 mg, 800 mg, irbesartan 300 mg, or placebo, taken daily in the morning for 12 weeks. Key efficacy endpoints of seated SBP, DBP and % of patients with BP control (<140/90 mmHg), and all standard safety parameters were assessed. […] The onset of action of the compound of formula I was rapid within 4 hours and the efficacy was sustained over 12 weeks.

Chains of the proteins cited; added tags and fusions are not shown. Residues count along the entry.
UniProt P25101, 21-427 limits assumed: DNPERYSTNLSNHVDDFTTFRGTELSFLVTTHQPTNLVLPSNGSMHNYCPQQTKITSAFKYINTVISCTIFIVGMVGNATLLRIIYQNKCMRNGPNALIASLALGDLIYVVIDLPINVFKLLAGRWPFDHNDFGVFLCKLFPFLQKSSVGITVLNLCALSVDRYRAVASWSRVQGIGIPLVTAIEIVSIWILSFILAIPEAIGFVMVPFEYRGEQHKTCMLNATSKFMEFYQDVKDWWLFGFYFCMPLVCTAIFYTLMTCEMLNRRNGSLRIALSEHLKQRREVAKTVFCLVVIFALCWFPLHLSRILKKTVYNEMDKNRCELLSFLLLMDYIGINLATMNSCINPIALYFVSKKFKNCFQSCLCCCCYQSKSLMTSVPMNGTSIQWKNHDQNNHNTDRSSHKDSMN
UniProt P24530, 27-442 limits assumed: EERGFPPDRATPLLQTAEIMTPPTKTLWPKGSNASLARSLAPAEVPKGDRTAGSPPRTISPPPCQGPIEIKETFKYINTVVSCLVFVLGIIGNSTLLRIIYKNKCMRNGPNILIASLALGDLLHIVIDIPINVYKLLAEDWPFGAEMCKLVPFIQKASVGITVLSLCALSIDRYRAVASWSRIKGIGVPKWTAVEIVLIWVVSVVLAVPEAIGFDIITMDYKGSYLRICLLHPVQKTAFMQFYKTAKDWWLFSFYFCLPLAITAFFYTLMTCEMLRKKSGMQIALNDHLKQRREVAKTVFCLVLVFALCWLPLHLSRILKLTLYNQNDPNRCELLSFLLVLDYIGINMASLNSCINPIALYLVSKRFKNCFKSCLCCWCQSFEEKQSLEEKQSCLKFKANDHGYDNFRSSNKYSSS
UniProt P25095, whole entry: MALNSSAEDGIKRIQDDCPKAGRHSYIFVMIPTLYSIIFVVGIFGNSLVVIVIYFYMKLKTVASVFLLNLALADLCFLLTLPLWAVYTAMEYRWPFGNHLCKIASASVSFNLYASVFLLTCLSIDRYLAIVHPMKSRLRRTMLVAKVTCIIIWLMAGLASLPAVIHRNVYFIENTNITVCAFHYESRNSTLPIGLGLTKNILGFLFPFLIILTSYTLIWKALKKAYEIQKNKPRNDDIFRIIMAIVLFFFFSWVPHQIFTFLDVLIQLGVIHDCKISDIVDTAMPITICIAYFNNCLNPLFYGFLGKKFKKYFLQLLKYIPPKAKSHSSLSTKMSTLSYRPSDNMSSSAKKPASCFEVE

[2] = molecular target: human endothelin A receptor (Homo sapiens, UniProt P25101); assay: ETA/B Attached Cell Binding Assay; conditions: competition with [125I]-ET-1, CHO-K1 cells
Experimental: (§1) CHO-K1 cells expressing either the human endothelin A or endothelin B receptor were cultured in Ham's F12 media (Gibco/BRL, Grand Island, N.Y.) with 10% fetal bovine serum (Hyclone), supplemented with 300 µg/mL Geneticin (G-418 Gibco BRL Products, Grand Island, N.Y.) and maintained at 37°C with 5% CO2 in a humidified incubator. Twenty four hours prior to assay, the cells were treated with 0.25% trypsin-EDTA and were seeded in Falcon, 96 well tissue culture plates at a density of 1.8x10^4 cells/well (the monolayer should reach 80-90% confluency by the day of assay).
(§2) In the attached cell assay, culture media was aspirated from each well and the monolayers were washed with 50 µL of PBS (Mg^++, Ca^++ free). The binding assay was performed in a total volume of 125 µL consisting of assay buffer (50 mM Tris, pH 7.4, including 1% BSA, and 2 µM phosphoramidon), and 25 µL of either 500 nM ET-1 (to define nonspecific binding) or competing drug. The reaction was initiated with the addition of 25 µL of 0.25 nM [^125I]-ET-1 (New England Nuclear). Incubation was carried out with gentle orbital shaking, at 4°C, reaching equilibrium at 4 hours. The reaction was terminated by aspiration of the reaction buffer and two subsequent washes with cold PBS (Mg^++, Ca^++ free). […] Data was analyzed with curve fitting software by Sigma plot.

endothelin B receptor = endothelin B receptor (Homo sapiens, UniProt P24530); assay: ETA/B Attached Cell Binding Assay; conditions: competition with [125I]-ET-1, CHO-K1 cells
Experimental: as §1, §2

[3] = tested on: stage I and II hypertensive patients; assay: Phase IIa trial
Experimental: The Phase IIa trial started with a 3-4 week placebo run-in period. 141 qualified stage I and II hypertensive patients were randomized to take either the compound of formula I 200 mg, 500 mg, or placebo, daily for 4 weeks. Key efficacy endpoints of mean 24 hour systolic ambulatory blood pressure monitoring (ABPM), mean 24 hour diastolic ABPM, mean seated office systolic blood pressure (SBP) and diastolic blood pressure (DBP), mean daytime SBP and DBP, mean nighttime SBP and DBP, and SBP and DBP during final 2 hours of dosing were assessed. 93 patients (efficacy population) were available for ABPM analysis.

angiotensin II receptor = angiotensin II receptor (Rattus norvegicus, UniProt P25095); assay: RASMC Binding Assay; conditions: competition with [125]I-Sar-Ile-Angiotensin II, RASMCs
Experimental: Assays were conducted in a total volume of 250 µL in 96 well microtitre plates. The incubation mixture contained 50 µL [125]I-Sar-Ile-Angiotensin II (0.2 nM), 25 µL of drug dissolved in DMSO, or angiotensin II (1 µM) to define nonspecific binding. Binding to rat aortic smooth muscle cells (RASMCs) was conducted in RPMI media (Gibco BRL Products, Grand Island, N.Y.) containing 0.1% BSA for 2 hours at room temperature with continuous shaking. Unbound radioligand was washed from the wells. The RASMCs with bound radioligand are lysed with 1% Triton X and 0.1% BSA in distilled water for 15 minutes at room temperature with continuous shaking. The solution in each well was transferred to tubes and placed in a gamma counter.

[4] = tested on: patients with diabetic nephrophathy; assay: Planned study in diabetic nephropathy patients (Example 15); conditions: 200 mg, 400 mg or 800 mg daily for 12 weeks; expected result
Experimental: The study starts with qualified patients with diabetic nephrophathy. Screening assessments and evaluations may be conducted over a period of no more than 2 weeks. Following screening, all eligible patients will undergo a 4-week placebo run-in period to ensure that baseline blood pressure remains stable and continues to meet eligibility criteria for randomization. Eligible patients are randomized to instruct to either the compound of formula I: 200 mg, 400 mg, or 800 mg; irbesartan 300 mg; or placebo, taken daily for 12 weeks. Key efficacy endpoints of seated systolic BP, diastolic BP and % of patients with BP control (<140/90 mmHg), and all standard safety parameters are assessed. Changes from baseline to final measurement in the course of treatment are recorded.

CCCCC1=NC2(CCCC2)C(=O)N1Cc1ccc(-c2ccccc2-c2nnn[nH]2)cc1
ALT Mean change from baseline ([1]; 300 mg): 0.2 U/L | AST Mean change from baseline ([1]; 300 mg): 0.1 U/L | AE Abdominal pain/Gastr ([1]; 300 mg (n=58)): 0 n (%) | AE Diarrhea/Gastr ([1]; 300 mg (n=58)): 1 (1.7) n (%) | AE Dizziness/Nerv ([1]; 300 mg (n=58)): 2 (3.4) n (%) | AE Fatigue/Genrl ([1]; 300 mg (n=58)): 3 (5.2) n (%) | AE Headache/Nerv ([1]; 300 mg (n=58)): 4 (6.9) n (%) | AE Migraine/Gastr ([1]; 300 mg (n=58)): 2 (3.4) n (%) | AE Odema peripheral/Genrl ([1]; 300 mg (n=58)): 2 (3.4) n (%) | AE Urinary tract infection/Infec ([1]; 300 mg (n=58)): 0 n (%) | % Pts Achieving Goal (< 140/90 mmHg) ([1]; 300 mg daily, Week 12 (n=58)): 31.5% | Mean DBP Change ([1]; 300 mg daily, Week 12 (n=58)): -7.1 mmHg | Mean SBP Change ([1]; 300 mg daily, Week 12 (n=58)): -10.7 mmHg

CCCCC1=NC2(CCCC2)C(=O)N1Cc1ccc(-c2ccccc2S(=O)(=O)Nc2noc(C)c2C)c(COCC)c1
activity as endothelin receptor antagonist [2]: has shown activity | activity as endothelin receptor antagonist (endothelin B receptor): has shown activity | AE Confusion/anxiety/nervousness ([3]; 200 mg (N=39)): 0 n (%) | AE Eczema ([3]; 200 mg (N=39)): 1 (2.6) n (%) | AE Headache ([3]; 200 mg (N=39)): 2 (5.1) n (%) | AE Musculoskeletal ([3]; 200 mg (N=39)): 1 (2.6) n (%) | AE Nausea/gastritis ([3]; 200 mg (N=39)): 2 (5.1) n (%) | AE Peripheral Edema ([3]; 200 mg (N=39)): 0 n (%) | AE Respiratory ([3]; 200 mg (N=39)): 0 n (%) | AE Tachycardia ([3]; 200 mg (N=39)): 0 n (%) | ALT Mean change from baseline ([3]; 200 mg (N=39)): -1.5 U/L | AST Mean change from baseline ([3]; 200 mg (N=39)): -0.9 U/L | At least one AE ([3]; 200 mg (N=39)): 8 (20.5) n (%) | Hb Mean Change from baseline ([3]; 200 mg (N=39)): -0.5 g/dL | Ht Mean change from baseline ([3]; 200 mg (N=39)): -1.7% | γGT Mean change from baseline ([3]; 200 mg (N=39)): +0.3 U/L | Mean 24 hr ABPM Change DBP ([3]; 200 mg daily, Week 4 (n=35)): -9.3^a mmHg | Mean 24 hr ABPM Change SBP ([3]; 200 mg daily, Week 4 (n=35)): -12.2 ^a mmHg | Mean Seated Office Change DBP ([3]; 200 mg daily, Week 4 (n=35)): -10.5^b mmHg | Mean Seated Office Change SBP ([3]; 200 mg daily, Week 4 (n=35)): -16.9^b mmHg | safety and tolerability ([3]; 200 mg or 500 mg once-daily, 4 weeks): safe and well tolerated | AE Confusion/anxiety/nervousness ([3]; 500 mg (N=38)): 0 n (%) | AE Eczema ([3]; 500 mg (N=38)): 0 n (%) | AE Headache ([3]; 500 mg (N=38)): 1 (2.6) n (%) | AE Musculoskeletal ([3]; 500 mg (N=38)): 2 (5.3) n (%) | AE Nausea/gastritis ([3]; 500 mg (N=38)): 1 (2.6) n (%) | AE Peripheral Edema ([3]; 500 mg (N=38)): 1 (2.6) n (%) | AE Respiratory ([3]; 500 mg (N=38)): 3 (7.9) n (%) | AE Tachycardia ([3]; 500 mg (N=38)): 0 n (%) | ALT Mean change from baseline ([3]; 500 mg (N=38)): -0.9 U/L | AST Mean change from baseline ([3]; 500 mg (N=38)): -1.2 U/L | At least one AE ([3]; 500 mg (N=38)): 10 (26.3) n (%) | Hb Mean Change from baseline ([3]; 500 mg (N=38)): -0.7 g/dL | Ht Mean change from baseline ([3]; 500 mg (N=38)): -2.2% | γGT Mean change from baseline ([3]; 500 mg (N=38)): +0.8 U/L | Mean 24 hr ABPM Change DBP ([3]; 500 mg daily, Week 4 (n=33)): -10.1 ^a mmHg | Mean 24 hr ABPM Change SBP ([3]; 500 mg daily, Week 4 (n=33)): -14.8 ^a mmHg | Mean Seated Office Change DBP ([3]; 500 mg daily, Week 4 (n=33)): -9.8^b mmHg | Mean Seated Office Change SBP ([3]; 500 mg daily, Week 4 (n=33)): -17.3^b mmHg | activity as angiotensin II receptor antagonist (angiotensin II receptor): has shown activity | ALT Mean change from baseline ([1]; 200 mg): -0.4 U/L | AST Mean change from baseline ([1]; 200 mg): -1.2 U/L | AE Abdominal pain/Gastr ([1]; 200 mg (n=58)): 1 (1.7) n (%) | AE Diarrhea/Gastr ([1]; 200 mg (n=58)): 1 (1.7) n (%) | AE Dizziness/Nerv ([1]; 200 mg (n=58)): 0 n (%) | AE Fatigue/Genrl ([1]; 200 mg (n=58)): 0 n (%) | AE Headache/Nerv ([1]; 200 mg (n=58)): 0 n (%) | AE Migraine/Gastr ([1]; 200 mg (n=58)): 0 n (%) | AE Odema peripheral/Genrl ([1]; 200 mg (n=58)): 2 (3.4) n (%) | AE Urinary tract infection/Infec ([1]; 200 mg (n=58)): 0 n (%) | % Pts Achieving Goal (< 140/90 mmHg) ([1]; 200 mg daily, Week 12 (n=58)): 36.2% | Mean DBP Change ([1]; 200 mg daily, Week 12 (n=58)): -7.2 mmHg | Mean SBP Change ([1]; 200 mg daily, Week 12 (n=58)): -13.2 mmHg | ALT Mean change from baseline ([1]; 400 mg): -3.2 U/L | AST Mean change from baseline ([1]; 400 mg): -1.5 U/L | AE Abdominal pain/Gastr ([1]; 400 mg (n=58)): 0 n (%) | AE Diarrhea/Gastr ([1]; 400 mg (n=58)): 1 (1.7) n (%) | AE Dizziness/Nerv ([1]; 400 mg (n=58)): 2 (3.4) n (%) | AE Fatigue/Genrl ([1]; 400 mg (n=58)): 4 (6.9) n (%) | AE Headache/Nerv ([1]; 400 mg (n=58)): 3 (5.2) n (%) | AE Migraine/Gastr ([1]; 400 mg (n=58)): 2 (3.4) n (%) | AE Odema peripheral/Genrl ([1]; 400 mg (n=58)): 4 (6.9) n (%) | AE Urinary tract infection/Infec ([1]; 400 mg (n=58)): 0 n (%) | % Pts Achieving Goal (< 140/90 mmHg) ([1]; 400 mg daily, Week 12 (n=58)): 51.9% ^b | Mean DBP Change ([1]; 400 mg daily, Week 12 (n=58)): -9.2 mmHg | Mean SBP Change ([1]; 400 mg daily, Week 12 (n=58)): -14.2 mmHg | ALT Mean change from baseline ([1]; 800 mg): -7.3 U/L | AST Mean change from baseline ([1]; 800 mg): -5.4 U/L | AE Abdominal pain/Gastr ([1]; 800 mg (n=28)): 2 (7.1) n (%) | AE Diarrhea/Gastr ([1]; 800 mg (n=28)): 2 (7.1) n (%) | AE Dizziness/Nerv ([1]; 800 mg (n=28)): 3 (10.7) n (%) | AE Fatigue/Genrl ([1]; 800 mg (n=28)): 0 n (%) | AE Headache/Nerv ([1]; 800 mg (n=28)): 2 (7.1) n (%) | AE Migraine/Gastr ([1]; 800 mg (n=28)): 0 n (%) | AE Odema peripheral/Genrl ([1]; 800 mg (n=28)): 3 (10.7) n (%) | AE Urinary tract infection/Infec ([1]; 800 mg (n=28)): 1 (3.6) n (%) | Mean DBP Change ([1]; 800 mg daily, Week 12 (n=28)): -14.3 ^a mmHg | Mean SBP Change ([1]; 800 mg daily, Week 12 (n=28)): -23.4 ^a mmHg | onset of action ([1]; in vivo): ≤ 4 h | BP decrease in SBP and DBP, and BP control [4]: statistically dose-dependent greater BP decrease in SBP and DBP, and in BP control than placebo and irbesartan

Source: patent publication EP4825441A2, “ORAL FORMULATIONS OF BIPHENYLSULFONAMIDE ENDOTHELIN ANGIOTENSIN II RECEPTOR ANTAGONISTS TO TREAT ELEVATED BLOOD PRESSURE AND DIABETIC NEPHROPATHY” (dated 2026)
